Results taken from PubChem BioAssay AID1018 (Sanford-Burnham Center for Chemical Genomics, 2008).
The entries are a selection whose mix differs from that of the whole data set. Active and inactive are the calls of the source. Cut-off read from the data, not from the text of the source: active = displacement above about 50%; inactive = the rest.

Sequences of proteins named here, by UniProt entry; tags and fusion partners are left off.
UniProt P98170, whole entry: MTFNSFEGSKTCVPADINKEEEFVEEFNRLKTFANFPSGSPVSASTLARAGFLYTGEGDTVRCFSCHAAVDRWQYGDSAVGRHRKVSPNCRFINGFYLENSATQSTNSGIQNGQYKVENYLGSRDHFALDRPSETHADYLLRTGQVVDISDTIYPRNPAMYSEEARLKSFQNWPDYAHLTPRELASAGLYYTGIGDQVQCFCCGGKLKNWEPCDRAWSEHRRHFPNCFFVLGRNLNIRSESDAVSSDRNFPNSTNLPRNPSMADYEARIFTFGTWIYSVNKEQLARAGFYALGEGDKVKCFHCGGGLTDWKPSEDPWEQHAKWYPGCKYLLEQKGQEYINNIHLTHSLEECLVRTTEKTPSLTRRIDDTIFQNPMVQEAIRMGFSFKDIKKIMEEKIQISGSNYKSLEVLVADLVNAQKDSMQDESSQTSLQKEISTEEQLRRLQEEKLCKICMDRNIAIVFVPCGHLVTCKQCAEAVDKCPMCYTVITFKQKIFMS

biological target: E3 ubiquitin-protein ligase XIAP (Homo sapiens) (UniProt P98170); test: small molecules displacing peptide from XIAP – biochemical, IAP family, fluorescence polarization (AID 1018); conditions: XIAP BIR domain, at 20 µM, stronger effect = higher value

| Compound | displacement |
| --- | --- |
| CCN1CCC(Nc2cccc(F)c2)CC1 | inactive: -3.8% |
| CN(C)c1ccc(C(=O)NCC2(N3CCCCC3)CCCCC2)cc1 | inactive: -3.2% |
| Fc1ccccc1NC1CCN(Cc2ccccc2)CC1 | inactive: -7% |
| CCC(CO)(C(=O)OC1CN2CCC1CC2)c1ccccc1 (stereo not given) | inactive: -8.8% |
| COc1cc(OC)cc(C(=O)NCC2(N3CCOCC3)CCCCC2)c1 | inactive: -2.7% |
| CCOc1ncccc1C(=O)NCC1(N2CCOCC2)CCCCC1 | inactive: -2.3% |
| CC(C)(C)OC(=O)N1CCC(Nc2ccccc2)CC1 | inactive: -4.3% |
| N/C(=N\O)c1c(N)no[n+]1[O-] | inactive: 2.5% |
| O=C(OC1CN2CCC1CC2)C1c2ccccc2C=Cc2ccccc21 (stereo not given) | inactive: -1.7% |
| COc1ccc(C(=O)NCC2(N3CCOCC3)CCCCC2)cc1OC | inactive: -3.2% |
| c1ccc(CN2CCC(Nc3ccccc3)CC2)cc1 | inactive: -4.2% |
| N#Cc1ccc(C(=O)NCC2(N3CCCCC3)CCCCC2)cc1 | inactive: -10% |
| COc1ccc(NC2CCN(C(=O)OC(C)(C)C)CC2)cc1 | inactive: -4.6% |
| CN1CCN(CCOC(=O)C(O)(c2ccccc2)c2ccccc2)CC1 | inactive: -3% |
| O=C(NCC1(N2CCOCC2)CCCCC1)c1cc(=O)[nH]c2ccccc12 | inactive: -5.2% |
| O=C(NCC1(N2CCCCC2)CCCCC1)c1cccc([N+](=O)[O-])c1 | inactive: -5.4% |
| N#CC1(Nc2ccccc2)CCN(CCc2ccccc2)CC1 | inactive: -4.2% |
| COc1ccc(CN(CCCl)CCCl)cc1Cl | inactive: 0.5% |
| CN(C)c1cccc(C(=O)NCC2(N3CCCCC3)CCCCC2)c1 | inactive: -5.8% |
| CC(C)c1ccc(NC2CCN(C(=O)OC(C)(C)C)CC2)cc1 | inactive: -10.6% |
| O=C(NCC1(N2CCOCC2)CCCCC1)c1cc2ccccc2o1 | inactive: -2% |
| CCOC(=O)N1CCC(Nc2ccc(OC)cc2)CC1 | inactive: -4.3% |
| O=C(OC1CN2CCC1CC2)C1c2ccccc2Oc2ccccc21 (stereo not given) | inactive: -6.1% |
| COc1ccc(C(=O)NCC2(N3CCCCC3)CCCCC2)c(OC)c1OC | inactive: -8.9% |
| COc1ccc(NC2CCN(CCc3ccccc3)CC2)c(OC)c1 | inactive: -6.8% |
